# Assay type: in vivo, male Sprague-Dawley rats
# Details: oral, rats
substance,measurement,setting,value
liquiritin apioside,mean AUC0-t increased in the N-XBSD group compared to the free drugs,N-XBSD vs free drugs,79.17%
same,mean AUC0-t in the N-XBSD group versus free drugs group,p<0.05,significantly higher
same,bioavailability after N-XBSD administration compared to the free drugs,same administration concentration,significantly higher
